# From PubChem BioAssay AID1645882 (National Center for Advancing Translational Sciences (NCATS), 2021)
# Chains of the proteins cited; added tags and fusions are not shown. Lines headed by an entry give the natural chain unless they say otherwise; changes in a name come on top.
# UniProt O95398: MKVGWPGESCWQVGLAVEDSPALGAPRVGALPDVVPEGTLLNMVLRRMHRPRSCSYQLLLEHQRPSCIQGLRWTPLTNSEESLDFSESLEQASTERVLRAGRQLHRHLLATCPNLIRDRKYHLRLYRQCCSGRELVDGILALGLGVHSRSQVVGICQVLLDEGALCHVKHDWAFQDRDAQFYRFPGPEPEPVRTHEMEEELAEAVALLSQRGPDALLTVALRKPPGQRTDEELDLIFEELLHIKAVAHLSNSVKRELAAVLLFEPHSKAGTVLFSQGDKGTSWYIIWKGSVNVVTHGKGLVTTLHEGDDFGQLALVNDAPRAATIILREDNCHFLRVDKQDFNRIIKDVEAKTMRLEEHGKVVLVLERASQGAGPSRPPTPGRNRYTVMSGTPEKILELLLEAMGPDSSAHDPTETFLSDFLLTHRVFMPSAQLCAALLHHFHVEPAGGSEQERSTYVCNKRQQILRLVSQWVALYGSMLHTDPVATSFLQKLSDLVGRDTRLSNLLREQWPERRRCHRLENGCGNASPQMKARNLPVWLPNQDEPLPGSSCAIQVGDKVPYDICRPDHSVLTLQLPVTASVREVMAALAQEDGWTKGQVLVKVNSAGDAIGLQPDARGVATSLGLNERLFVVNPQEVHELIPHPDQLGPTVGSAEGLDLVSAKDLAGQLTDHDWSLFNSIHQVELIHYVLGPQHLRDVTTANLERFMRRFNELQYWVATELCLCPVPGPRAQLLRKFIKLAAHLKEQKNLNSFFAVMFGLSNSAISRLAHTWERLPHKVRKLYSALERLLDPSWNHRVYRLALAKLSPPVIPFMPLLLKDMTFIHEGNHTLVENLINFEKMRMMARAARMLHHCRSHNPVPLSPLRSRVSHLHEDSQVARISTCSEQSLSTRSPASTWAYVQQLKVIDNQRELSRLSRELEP
# Only a part is listed here, and it is no random draw. Inconclusive results are not listed. Active and inactive are the calls of the source. Calls follow the shape of the dose curve; as a rule, active = well fitted inhibition curve with a large enough effect; inconclusive = small, poorly fitted or top-dose-only effect; inactive = no such curve, though single readings can be large or run the other way.
# Biological target: Rap guanine nucleotide exchange factor 3 (Homo sapiens) (UniProt O95398)
# Test: Validation qHTS for antagonist of cAMP-regulated guanine nucleotide exchange factor 3 (EPAC1); also: nearly all actives have a fitted effect of over 75% in size
# Conditions: EPAC1 Rap1B-BODIPY-GDP exchange, fluorescence
# Description: Assay Provider (PI): Xiaodong Cheng Ph.D.
# The University of Texas Medical Branch, […], TX
# In multi-cellular eukaryotic organisms, the effects of cAMP are transduced by two ubiquitously-expressed intracellular cAMP receptors, the classic protein kinase A/cAMP-dependent protein kinase (PKA/cAPK) and the more recently discovered exchange protein directly activated by cAMP/cAMP-regulated guanine nucleotide exchange factor (EPAC/cAMP-GEF). Both PKA and EPAC are ubiquitously expressed in all tissues, and an increase in intracellular cAMP levels will lead to the activation of both PKA and EPAC. […]
# This qHTS will be used to screen the Molecular Libraries Small Molecule Repository (MLSMR) as a concentration-titration series using the NCGC unique quantitative screening (qHTS) platform to find activators for EPAC1. […] Activators are identified by monitoring the change in fluorescence signal as the exchanged free BODIPY-GDP has a reduced fluorescence compared to Rap1-bound BODIPY-GDP. […]
# Briefly, three uL of reagents (100 nM EPAC1, 250 nM RAP1B-BODIPY-GDP, 50 uM GDP) were dispensed into a 1536-well Greiner black solid-bottom medium binding assay plate. […] The assay plates were read at 5 minute intervals for 30 minutes in the ViewLux plate reader using 480nm excitation and 540nm emission filters. […]
# Potency is read from the fitted curve at half-maximal effect.
row,Structure (SMILES),Potency
1,CCC(=O)O[C@H]1[C@H](O[C@@H]2[C@@H](C)[C@H](O[C@H]3C[C@@](C)(OC)[C@@H](O)[C@H](C)O3)[C@@H](C)C(=O)O[C@H](CC)[C@@](C)(O)[C@H](O)[C@@H](C)C(=O)[C@H](C)C[C@@]2(C)O)O[C@H](C)C[C@@H]1N(C)C,active: 44.7 µM
2,C=C1CCC(O)C/C1=C\C=C1/CCCC2(C)C1CCC2C(C)CCCC(C)C (configuration not stated),active: 44.7 µM
